Results from publication PMC11395566, “Novel Copper (II) Complexes with Fluorine-Containing Reduced Schiff Base Ligands Showing Marked Cytotoxicity in the HepG2 Cancer Cell Line” (International Journal of Molecular Sciences, 2024).

The substances below were run against Jack bean urease (Canavalia ensiformis, UniProt P07374). Settings: read-out: Urease inhibition IC50 ± SD, 15 min pre-incubation.

Row | Substance | IC50 [µM]
1 | Dichloro[(±)-trans-N,N′-bis-(3,5-bis-trifluoromethylbenzyl)-cyclohexane-1,2-diamine]copper (II) [Cu-L14] | 2.05 ± 0.34
2 | Dichloro[(±)-trans-N,N′-bis-(3,5-difluorobenzyl)-cyclohexane-1,2-diamine]copper (II) [Cu-L13] | 3.47 ± 0.88
3 | Dichloro[(±)-trans-N,N′-bis-(4-fluorobenzyl)-cyclohexane-1,2-diamine]copper (II) [Cu-L11] | 2.7 ± 1.09
4 | Dichloro[(±)-trans-N,N′-bis-(4-trifluoromethylbenzyl)-cyclohexane-1,2-diamine]copper (II) [Cu-L12] | 4.01 ± 0.84
